Experimental data from ChEMBL document CHEMBL1146639, “Synthesis and evaluation of nonpeptide substituted spirobenzazepines as potent vasopressin antagonists” (Bioorg Med Chem Lett, 2004).

Amino acid sequences for entries named in this document (tags omitted).
UniProt Q00788, whole entry: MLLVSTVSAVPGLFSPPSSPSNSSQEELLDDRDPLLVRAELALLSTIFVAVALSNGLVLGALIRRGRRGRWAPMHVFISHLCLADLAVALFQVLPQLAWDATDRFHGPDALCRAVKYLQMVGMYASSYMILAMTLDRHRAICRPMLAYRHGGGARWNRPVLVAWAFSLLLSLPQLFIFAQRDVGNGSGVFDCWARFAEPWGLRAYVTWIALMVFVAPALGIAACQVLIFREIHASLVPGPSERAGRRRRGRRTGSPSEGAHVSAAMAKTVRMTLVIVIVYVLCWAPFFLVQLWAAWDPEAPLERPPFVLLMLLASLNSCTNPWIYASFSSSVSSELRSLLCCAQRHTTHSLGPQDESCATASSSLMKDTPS

Target: Vasopressin V2 receptor (Rattus norvegicus, UniProt Q00788)
Experiment: Evaluated for binding affinity towards vasopressin V2 receptor in rat
Procedure, shortened: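 Binding IC50 measured in cells transfected with rat V1a or rat V2 receptors.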

- IC50: 5 nM
SMILES: CN(C)CCNC(=O)C1=C[C@]2(CC1)CCN(C(=O)c1ccc(NC(=O)c3ccccc3-c3ccccc3)cc1)c1ccccc1C2
